# System: neural stem cells
# Assay: In vitro migration assay using ERK pathway and CDK5 pathway inhibitors
# Type: cell-based
# Settings: Homo sapiens, Neural stem cell, 12 h, read-out: inhibition of migration of neural stem cells induced by periostin
# Source text: It has been reported that, in the development of the central nervous system, neural stem cells migrate from the subventricular zone to cortex through radial glial cells using the ERK (extracellular signal regulated kinase) and CDK5 signaling pathways, and in the neuronal migration, DCX participated in nucleus translocation, neucleokinesis (Niethammer et al., 2000).
# Cultured neural stem cells were detached with 0.05% trypsin, washed with DMEM medium and re-suspended in DMEM medium, after which 5×10^4 cells were inoculated into an upper chamber (Costar Transwell) in 200 μl of 10% FBS-containing DMEM medium.
# After 12 hours, in order to determine the number of cells that migrated from the upper chamber through a 8-μm porous polycarbonate membrane to the lower portion of the membrane in response to the stimulation of the lower chamber, the migrated neural stem cells were stained with hematoxylin & eosin and counted.
smiles,measurement,value
CC[C@H](CO)Nc1nc(NCc2ccccc2)c2ncn(C(C)C)c2n1 [roscovitine],inhibition at 0.02 µM,94%

# Source: patent publication US9028810B2, “Composition for inducing migration of neural stem cells containing periostin as effective ingredient” (Ajou University Industry—Academic Cooperations Foundatin, priority 2010, dated 2015)
